# Source: patent US20090082276A1 (priority 2006, published 2009)
# Conditions: remaining active peptide estimated as EC50, 4C/EC50, 37C
smiles,measurement,value
CCCCCCCCCCCCCCCC(=O)N[C@@H](CCC(=O)NCCCC[C@H](NC(=O)[C@@H]1CCCN1C(=O)[C@@H]1CCCN1C(=O)[C@@H]1CCCN1C(=O)[C@H](C)NC(=O)CNC(=O)[C@H](CO)NC(=O)[C@H](CO)NC(=O)[C@@H]1CCCN1C(=O)CNC(=O)CNC(=O)[C@H](CCCN)NC(=O)[C@H](CCCN)NC(=O)[C@@H](NC(=O)C(C)(C)NC(=O)[C@H](CCC(N)=O)NC(=O)C(C)(C)NC(=O)[C@H](Cc1ccc(O)cc1)NC(=O)[C@H](CCCN)NC(=O)C(C)(C)NC(=O)[C@H](CC)NC(=O)[C@H](C)NC(=O)[C@H](CC(C)C)NC(=O)[C@H](CCC(N)=O)NC(=O)C(C)(C)NC(=O)[C@H](CCCNC(=N)N)NC(=O)[C@H](CC(C)C)NC(=O)[C@H](CCCN)NC(=O)[C@@H](NC(=O)[C@H](Cc1ccc(OC)cc1)NC(=O)[C@H](CCC(N)=O)NC(=O)[C@H](CCC(=O)O)NC(=O)[C@@H](NC(=O)[C@H](Cc1ccccc1)NC(=O)[C@@H](NC(=O)[C@H](C)NC(=O)[C@H](CC(=O)O)NC(=O)[C@H](CO)NC(=O)[C@H](Cc1c[nH]cn1)NC(=O)CCCCC)C(C)C)[C@@H](C)O)[C@@H](C)O)[C@@H](C)CC)C(N)=O)C(=O)O [Agonist P603],"Estimated peptide stability after 24 h in rat serum at 37° C., % stab",67%
